# Source: PubChem BioAssay AID1022 (Emory University Molecular Libraries Screening Center, 2008)
# Amino acid sequences for entries named in this document (tags omitted).
# UniProt Q07820, whole entry: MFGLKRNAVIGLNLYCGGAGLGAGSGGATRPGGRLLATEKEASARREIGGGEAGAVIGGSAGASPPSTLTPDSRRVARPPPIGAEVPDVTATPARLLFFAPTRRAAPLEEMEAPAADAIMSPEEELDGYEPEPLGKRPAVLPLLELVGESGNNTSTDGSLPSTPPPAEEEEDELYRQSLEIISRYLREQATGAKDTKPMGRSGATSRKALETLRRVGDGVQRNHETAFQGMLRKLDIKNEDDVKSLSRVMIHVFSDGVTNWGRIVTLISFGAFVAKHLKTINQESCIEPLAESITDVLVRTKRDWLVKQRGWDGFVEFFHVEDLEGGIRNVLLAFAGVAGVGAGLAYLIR
# Only a part is listed here, and it is no random draw. Some salts and complexes are drawn in separate pieces, as the source files them; their charges need not balance. Activity calls are given as the source filed them.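 The calls were made as follows: active = compounds that cut the protein-peptide binding signal by more than 50% relative to plate controls in a single-dose test; inactive = the rest.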
# Molecular target: Induced myeloid leukemia cell differentiation protein Mcl-1 (Homo sapiens) (UniProt Q07820)
# Test: Mcl-1/Noxa binding inhibitors, primary screen, biochemical, TR-FRET, 1536-well (AID 1022);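 also: His-tagged Mcl-1 with rhodamine Noxa BH3 peptide and terbium anti-His antibody; 0% = Mcl-1 plus Noxa peptide wells and 100% = peptide-only wells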
# Conditions: TR-FRET Mcl-1/Noxa peptide binding, 2 h; at 21.7 µM; stronger effect = higher value
row,Structure (SMILES),inhibition
1,COc1ccc2c(c1O)-c1c(O)c(OC)cc3c1[C@H](C2)[N+](C)(C)CC3.O=[N+]([O-])c1cc([N+](=O)[O-])c([O-])c([N+](=O)[O-])c1[O-],inactive: 25.3%
2,O=C(OCCN1CCN(CCOCc2ccccc2)CC1)C(O)(c1ccccc1)c1ccccc1,inactive: 31.5%
3,O=C(OC1CN2CCC1CC2)c1ccc([N+](=O)[O-])cc1 (stereo not drawn),inactive: -0.02%
4,CC(C)c1ccc(OP(C)(=O)Nc2ccc(SC(F)(F)F)cc2)cc1 (stereo not drawn),inactive: -0.38%
5,CP(=O)(Nc1ccccc1F)Oc1ccccc1 (stereo not drawn),inactive: 14.8%
6,CCCCCOc1ccc(NP(C)(=O)Oc2ccc(Cl)cc2Cl)cc1 (stereo not drawn),inactive: 15.1%
7,CP(=O)(Nc1ccccc1)Oc1ccc(F)cc1 (stereo not drawn),inactive: 0.74%
8,CCN(CC)CCCOC(=O)C(O)(c1ccccc1)C1CCCCC1 (stereo not drawn),inactive: 15%
9,COc1ccc(OP(C)(=O)Nc2ccc(SC(F)(F)F)cc2)cc1 (stereo not drawn),inactive: 10.8%
10,CCOC(=O)c1ccc(NP(C)(=O)Oc2ccc(F)cc2)cc1 (stereo not drawn),inactive: 4.24%
11,O=[N+]([O-])c1cc([N+](=O)[O-])c(NCC2CCS(=O)(=O)C2)c([N+](=O)[O-])c1 (stereo not drawn),inactive: 12.9%
12,Cc1cc(-c2cccc3ccccc23)c(C)cn1.O=[N+]([O-])c1cc([N+](=O)[O-])c(O)c([N+](=O)[O-])c1,inactive: -6.93%
13,O=[N+]([O-])c1ccc(OP2(=O)COCCO2)cc1 (stereo not drawn),inactive: -11.9%
14,COc1ccc(NP(C)(=O)Oc2ccccc2OC)cc1 (stereo not drawn),inactive: 20.7%
15,CN(C)CCOC(=O)C(O)(c1ccccc1)C1CCCCC1 (stereo not drawn),inactive: 1.68%
16,COc1ccc(OP(C)(=O)Nc2cccc(Br)c2)cc1 (stereo not drawn),inactive: 0.8%
17,Cc1ccccc1NP(C)(=O)Nc1ccccc1C,inactive: 5.36%
18,CP(=O)(Nc1ccc2c(c1)OCCO2)Oc1ccccc1 (stereo not drawn),inactive: 5.21%
19,CCOP(C)(=S)SCC(=O)NC(C)(CC)C(=O)O (stereo not drawn),inactive: 18.4%
20,CP(=O)(Nc1ccc(SC(F)(F)F)cc1)Oc1ccc(F)cc1 (stereo not drawn),inactive: -3.28%
21,CN(C)C(=O)c1c([N+](=O)[O-])cc([N+](=O)[O-])cc1[N+](=O)[O-],inactive: 7.06%

row,Structure (SMILES),inhibition
1,CP(=O)(Nc1ccc(Cl)cc1)Oc1ccc(F)cc1 (stereo not drawn),inactive: 0.79%
2,COc1ccccc1OP(C)(=O)Nc1ccccc1Br (stereo not drawn),inactive: -10.2%
3,CC(C)(C)c1ccc(OP(C)(=O)O)cc1,inactive: 5.32%
4,CCc1ccc(OP(C)(=O)Nc2cccnc2)cc1 (stereo not drawn),inactive: -2.12%
5,CP(=O)(Oc1ccccc1)N1CCOC1=O (stereo not drawn),inactive: 8.17%
6,O=C(OCCCN1CCCC1)C(O)(c1ccccc1)C1CCCCC1 (stereo not drawn),inactive: 8.69%
7,COc1ccc(OP(C)(=O)Nc2ccc(Br)cc2)cc1 (stereo not drawn),inactive: 14.1%
8,CCN(CC)CC(O)COC(=O)C(O)(c1ccccc1)C1CCCCC1 (stereo not drawn),inactive: 5.43%
9,CP(=O)(OC12CC3CC(CC(C3)C1)C2)OC12CC3CC(CC(C3)C1)C2,inactive: -9.45%
10,CCOC(=O)c1ccc(NP(C)(=O)Oc2ccc(Cl)cc2)cc1 (stereo not drawn),inactive: -1.64%
11,CP(=O)(Nc1ccc(Cl)cc1Cl)Oc1ccccc1 (stereo not drawn),inactive: 5.5%
12,CP(=O)(OCCOc1ccccc1)OCCOc1ccccc1,inactive: 20.4%
13,Cc1nc2ccc3ccccc3c2o1.O=[N+]([O-])c1cc([N+](=O)[O-])c(O)c([N+](=O)[O-])c1,inactive: 23.9%
14,COc1ccc(OP(C)(=O)Nc2ccccc2Br)cc1 (stereo not drawn),inactive: 10.1%
15,COc1ccccc1OP(C)(=O)Nc1ccc(C)c(C)c1 (stereo not drawn),inactive: -18.6%
16,Cc1cc(C)cc(OP(C)(=O)Nc2cccc(C(F)(F)F)c2)c1 (stereo not drawn),inactive: 12.4%
17,CCc1ccc(OP(C)(=O)O)cc1,inactive: 27.4%
18,COc1ccccc1OP(C)(=O)Nc1ccc(C)cc1C (stereo not drawn),inactive: -4.55%
19,CP(=O)(Nc1ccccn1)Oc1ccccc1 (stereo not drawn),inactive: 10.3%
20,Cc1c(NP(C)(=O)Oc2ccc(C(C)C)cc2)c(=O)n(-c2ccccc2)n1C (stereo not drawn),inactive: 1.35%
21,O=[N+]([O-])c1cc([N+](=O)[O-])c(Nc2ccccn2)c([N+](=O)[O-])c1,inactive: 10.9%

row,Structure (SMILES),inhibition
1,CN(C)CCOC(=O)C(O)(c1ccccc1)C1CCCC1 (stereo not drawn),inactive: 13.2%
2,COc1ccc(OP(C)(=O)Nc2ccccn2)cc1 (stereo not drawn),inactive: 12.5%
3,COc1ccccc1OP(C)(=O)Nc1ccc(Br)cc1 (stereo not drawn),inactive: -1.27%
4,CCN(CC)CCCOC(=O)C(O)(c1ccccc1)c1ccccc1,inactive: -4.16%
5,COc1ccc(OP(C)(=O)Nc2cccc(F)c2)cc1 (stereo not drawn),inactive: 20.7%
6,COc1ccccc1OP(C)(=O)Nc1cc(Cl)ccc1C (stereo not drawn),inactive: 11.7%
7,Cc1cc(C)cc(OP(C)(N)=O)c1 (stereo not drawn),inactive: 1.62%
8,CCOC(=O)c1ccc(NP(C)(=O)Oc2ccccc2)cc1 (stereo not drawn),inactive: 11%
9,Cc1ccc(NP(C)(=O)Oc2ccccc2)c(C)c1 (stereo not drawn),inactive: 12.8%
10,COc1ccccc1OP(C)(=O)Nc1ccc(C)cc1 (stereo not drawn),inactive: -4.79%
11,Cc1cccc(C)c1OP(C)(N)=O (stereo not drawn),inactive: 27%
12,CC(C)(C)c1ccc(OP(C)(=O)Nc2ccc(SC(F)(F)F)cc2)cc1 (stereo not drawn),inactive: 8.4%
13,O=[N+]([O-])c1ccc2c(c1)C=Nc1ccccc1O2,inactive: 12.1%
14,COc1ccccc1OP(C)(=O)Nc1ccccc1 (stereo not drawn),inactive: 14.8%
15,CP(=O)(Nc1ccccc1Br)Oc1ccccc1 (stereo not drawn),inactive: 2.08%
16,CP(=S)(Nn1cnnc1)Oc1ccccc1 (stereo not drawn),inactive: 23.5%
17,CP(=O)(Nc1ccccn1)Oc1ccc(Cl)cc1 (stereo not drawn),inactive: -3.41%
18,CCOP(C)(=S)SCC(=O)NC(C)C(=O)O (stereo not drawn),inactive: 9.02%
19,CCOC(=O)c1ccc(NP(C)(=O)Oc2ccc(OC)cc2)cc1 (stereo not drawn),inactive: -4.72%
20,Cc1cc(C)cc(OP(C)(=O)Nc2ccc(SC(F)(F)F)cc2)c1 (stereo not drawn),inactive: 5.35%
21,CP(=O)(NC(=O)Nc1ccccc1)Oc1ccccc1 (stereo not drawn),inactive: -2.99%

row,Structure (SMILES),inhibition
1,CCc1ccc(OP(C)(=O)N2CCN(c3ccc([N+](=O)[O-])cc3)CC2)cc1 (stereo not drawn),inactive: -7.49%
2,CP(=O)(Oc1ccccc1)OC(c1ccccc1)C(F)(F)F (stereo not drawn),inactive: 8.75%
3,CP(=O)(Nc1ccc(SC(F)(F)F)cc1)Oc1ccc(Cl)cc1 (stereo not drawn),inactive: 0.63%
4,Cc1cccc(C)c1OP(C)(=O)Nc1ccc(SC(F)(F)F)cc1 (stereo not drawn),inactive: -5.39%
5,Cc1nc2ccc3ccccc3c2s1.O=[N+]([O-])c1cc([N+](=O)[O-])c(O)c([N+](=O)[O-])c1,inactive: 25.7%
6,O=[N+]([O-])c1cc([N+](=O)[O-])c(-n2nnc3ccccc32)c([N+](=O)[O-])c1,active: 52.6%
7,CCCOc1ccc(NP(C)(=O)Oc2ccc(Cl)cc2)cc1 (stereo not drawn),inactive: 10.5%
8,CP(=O)(Nc1ccc(SC(F)(F)F)cc1)Oc1ccccc1 (stereo not drawn),inactive: 15%
9,CN1CCCCC1COC(=O)C1(O)c2ccccc2CCc2ccccc21 (stereo not drawn),inactive: 11.1%
10,COc1ccccc1OP(C)(=O)Nc1c(C)cccc1C (stereo not drawn),inactive: 2.95%
11,CCOC(=O)C(CC)C1=NC(C)(C)Cc2ccccc21.O=[N+]([O-])c1cc([N+](=O)[O-])c(O)c([N+](=O)[O-])c1 (stereo not drawn),inactive: 13.8%
12,O=[N+]([O-])c1cc([N+](=O)[O-])c(Nc2nnnn2CCO)c([N+](=O)[O-])c1,inactive: 11.1%
13,CC1=NCCc2c1[nH]c1ccccc21.O=[N+]([O-])c1cc([N+](=O)[O-])c(O)c([N+](=O)[O-])c1,inactive: 18.6%
14,O=C(O)c1cccc(Nc2c([N+](=O)[O-])cc([N+](=O)[O-])cc2[N+](=O)[O-])c1,inactive: 19.9%
15,Cc1cc(C)cc(OP(C)(=O)Nc2ccccn2)c1 (stereo not drawn),inactive: 8.43%
16,CP(=O)(Nc1cccc(Br)c1)Oc1ccccc1 (stereo not drawn),inactive: -3.03%
17,Cc1ccc(C)c(NP(C)(=O)Oc2ccccc2)c1 (stereo not drawn),inactive: -0.35%
18,Cc1cc(C)cc(OP(C)(=O)Nc2ccc(C)cc2C)c1 (stereo not drawn),inactive: -5.57%
19,CCOC(=O)c1ccc(NP(C)(=O)Oc2cc(C)cc(C)c2)cc1 (stereo not drawn),inactive: 6.14%
20,COc1ccccc1OP(C)(=O)Nc1cccc(Br)c1 (stereo not drawn),inactive: 24.4%
